The target in this experiment is T1, P2X purinoceptor 7 (Rattus norvegicus, UniProt Q64663).
T1 sequence (Q64663 whole entry): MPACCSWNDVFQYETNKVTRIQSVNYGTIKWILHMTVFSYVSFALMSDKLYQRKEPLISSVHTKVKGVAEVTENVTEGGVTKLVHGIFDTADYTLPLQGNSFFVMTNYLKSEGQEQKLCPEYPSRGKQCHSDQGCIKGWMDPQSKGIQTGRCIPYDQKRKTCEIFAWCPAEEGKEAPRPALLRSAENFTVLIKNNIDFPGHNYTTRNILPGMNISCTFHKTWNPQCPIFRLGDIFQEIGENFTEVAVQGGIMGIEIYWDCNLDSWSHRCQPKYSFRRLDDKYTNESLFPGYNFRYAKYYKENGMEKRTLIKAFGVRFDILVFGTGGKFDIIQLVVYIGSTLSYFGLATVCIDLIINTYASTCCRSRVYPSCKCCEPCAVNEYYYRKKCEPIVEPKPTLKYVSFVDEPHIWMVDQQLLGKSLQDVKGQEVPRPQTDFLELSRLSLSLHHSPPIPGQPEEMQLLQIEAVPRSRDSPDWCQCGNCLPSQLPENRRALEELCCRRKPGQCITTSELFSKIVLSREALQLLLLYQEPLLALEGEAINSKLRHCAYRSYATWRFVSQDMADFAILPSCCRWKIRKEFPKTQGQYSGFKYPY
Nature of the experiment: Inhibition of recombinant rat P2X7 receptor by FLIPR assay.

Usually IC50 stands for the concentration that gives 50% inhibition.

Turning to `O=C(c1cccc(C(F)(F)F)c1Cl)N1[C@H]2CC[C@@H]1c1nnc(-c3ncc(F)cn3)n1C2`, the IC50 is 3.98 µM.
